# Tests used:
# [1] = target: des(methyl) spinach Rubisco (ribulose-1,5-bisphosphate carboxylase-oxygenase holoenzyme) (spinach) (UniProt P00875); test: cell-based or functional assay
# [2] = target: des(methyl) spinach Rubisco (ribulose-1,5-bisphosphate carboxylase-oxygenase holoenzyme) (spinach) (UniProt P00875); test: method not stated for the conjugate; FIG. 1 estimates the KD of Rubisco LSMT from association and dissociation on PVDF-immobilized Rubisco
substance,measurement,setting,value
human carbonic anhydrase II (HCAII)-pea Rubisco LSMT conjugate (glutaraldehyde cross-linked) (from UniProt Q43088 38-489; P00918 2-260),carboxylase velocity of spinach Rubisco at 15 µM CO2 (µmoles/min/mg protein),[1],2.08
same,Kd,[2],0.1 nM

# Reference: patent publication US20090070901A1
